Results: paper PMC10653547

Test system: sheep red blood cells
Experiment: Hemolytic activity assay
Settings: 1 h at 37 °C

Compound: CC[C@H](C)[C@H](NC(=O)CN)C(=O)NCC(=O)N[C@@H](C)C(=O)N[C@H](C(=O)N[C@@H](CC(C)C)C(=O)N[C@@H](CCCCN)C(=O)N[C@H](C(=O)N[C@@H](CC(C)C)C(=O)N[C@H](C(=O)N[C@H](C(=O)NCC(=O)N[C@@H](CC(C)C)C(=O)N1CCC[C@H]1C(=O)N[C@@H](C)C(=O)N[C@@H](CC(C)C)C(=O)N[C@H](C(=O)N[C@@H](CO)C(=O)N[C@@H](Cc1c[nH]c2ccccc12)C(=O)N[C@H](C(=O)N[C@@H](CCCCN)C(=O)N[C@@H](CCCNC(=N)N)C(=O)N[C@@H](CCCCN)C(=O)N[C@@H](CCCNC(=N)N)C(=O)N[C@@H](CCC(N)=O)C(=O)N[C@@H](CCC(N)=O)C(N)=O)[C@@H](C)CC)[C@@H](C)CC)[C@@H](C)O)[C@@H](C)O)C(C)C)C(C)C [melittin]
- 50% hemolysis (HL50): 15 µg/mL
